Experimental data taken from EP0591581B1, “N-Alkyl-3-phenyl-3-(2-alkylthiophenoxy)propylamines” (ELI LILLY AND COMPANY, priority 1992, dated 1994).

Protein sequences, listed by entry. Tags and fused reporters are not part of them. Residues count along the entry.
UniProt Q9WTR4, 1-597: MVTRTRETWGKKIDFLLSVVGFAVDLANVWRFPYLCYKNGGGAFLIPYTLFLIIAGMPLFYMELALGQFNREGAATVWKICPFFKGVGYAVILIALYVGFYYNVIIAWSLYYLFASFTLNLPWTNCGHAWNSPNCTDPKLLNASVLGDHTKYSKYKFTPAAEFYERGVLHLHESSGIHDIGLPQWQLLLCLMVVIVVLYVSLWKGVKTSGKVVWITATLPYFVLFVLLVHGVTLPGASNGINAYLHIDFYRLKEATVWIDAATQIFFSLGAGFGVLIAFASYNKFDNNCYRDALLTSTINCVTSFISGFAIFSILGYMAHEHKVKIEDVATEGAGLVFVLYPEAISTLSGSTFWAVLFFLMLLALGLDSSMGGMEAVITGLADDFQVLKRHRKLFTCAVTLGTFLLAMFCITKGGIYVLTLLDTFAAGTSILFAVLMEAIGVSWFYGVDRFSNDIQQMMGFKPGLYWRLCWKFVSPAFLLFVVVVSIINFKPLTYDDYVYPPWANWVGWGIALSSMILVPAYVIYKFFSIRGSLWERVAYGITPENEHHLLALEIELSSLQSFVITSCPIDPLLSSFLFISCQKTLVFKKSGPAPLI

Biological target: T1, norepinephrine uptake (Rattus norvegicus, UniProt Q9WTR4)
T1 construct: Crude synaptosomal preparations were isolated after differential centrifugation; from tissue; host or cells: rat cerebral cortex, crude synaptosomes
Assay: Synaptosomal uptake of ³H-norepinephrine in rat cerebral cortex synaptosomes
Type: biochemical, Male Sprague-Dawley rats
Conditions: Cortical synaptosomes, 50 nM ³H-NE, 37°C for 5 minutes; IC₅₀ by linear regression analysis

## CNCCC(Oc1ccccc1OC)c1ccccc1 (stereo not shown) [CH₃O, N-methyl-3-phenyl-3-(2-methoxyphenoxy)propylamine]
  IC50: 7 nM
